# scFv variants of Ab-91 (heavy chain) against a SARS-CoV-2 spike peptide

From the AlphaSeq antibody data of Engelhart et al. 2022 (doi:10.1038/s41597-022-01779-4), copy in the FLAb collection.

All variants were tested on one target, the spike HR2 peptide PDVDLGDISGINAS (SARS-CoV-2).

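The starting antibody came from a phage panning campaign against this peptide. Variants in AAYL51 differ from the parent at up to three CDR positions; double and triple changes were sampled at random. Affinity was read by AlphaSeq, a pooled yeast mating assay with surface-displayed partners. Mating (16 h, 30 °C) was followed by selection of diploids and sequencing of their barcodes. Each replicate has its own calibration line, from reference interactions of the BCL2 family. Mating was done three times.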

Parent scFv Ab-91: VL joined to VH by a 15-residue (Gly4Ser)3 linker. Changes lie in the heavy chain CDRs alone.
VL: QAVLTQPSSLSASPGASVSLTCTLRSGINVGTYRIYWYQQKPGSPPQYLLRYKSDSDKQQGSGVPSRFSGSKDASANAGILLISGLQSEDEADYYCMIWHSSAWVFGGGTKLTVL
VH: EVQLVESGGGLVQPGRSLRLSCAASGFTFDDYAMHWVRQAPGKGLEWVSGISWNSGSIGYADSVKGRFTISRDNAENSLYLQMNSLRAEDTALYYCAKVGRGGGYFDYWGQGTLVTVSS

Variants are written as CDR1, CDR2 and CDR3 of the heavy chain (limits as in the source). Parent: GFTFDDYAMH, GISWNSGSIGYADSVK, VGRGGGYFDY. Numbers give log10(Kd / nM), so 0 is 1 nM and 3 is 1 µM. Smaller is tighter. A pair that was not seen in that replicate is written "n.d."; this usually means weak binding, but a binder can also be missed. Three control strains display no target. For library AAYL51, 21% of the pairings with them gave a signal, with a median of 4.54 and one signal in twenty below 3.26, so weak values seen in few replicates may be background. The control count says in how many pairings with the empty strains this scFv gave a signal, with their mean in brackets.

CDR-H1	CDR-H2	CDR-H3	replicates, log10 nM	empty controls
GFTFDDYAMH	EISWNSGSIGYADSVK	VGRGGGYFDY	5.39 / 4.97 / n.d.	2 of 9 (4.96)
GFKFDDYAMH	GWSWNSGSIGYADSVK	VGRGGGLFDY	n.d. / n.d. / n.d.	0 of 9
GFTFDDYAMH	GISWNTGSIGYADRVK	VGRGGGYFDK	3.03 / 2.99 / 4.40	0 of 9
GFTFDDYAMH	GISWNSGSIRYADSVK	VGRGGGKFDA	4.53 / 4.77 / 5.12	5 of 9 (4.91)
GFHFDDYAMQ	GISWNSGSIGYADSIK	VGRGGGYFDY	5.90 / 6.04 / n.d.	5 of 9 (4.30)
WFTFDDYAMH	GISRNSGYIGYADSVK	VGRGGGYFDY	3.87 / n.d. / n.d.	5 of 9 (5.10)
GFTWDDYAMH	GISWNSGTIKYADSVK	VGRGGGYFDY	5.10 / 5.19 / 5.79	6 of 9 (5.18)
GFTFDDYAMH	GISWNSGSIGYADYVK	VGRGGGYFDY	1.15 / 1.46 / 0.68	0 of 9
GFTFDDYAMH	GISWNSGAIGYNDSVK	VGRGGGYFDY	2.51 / 2.74 / 2.85	6 of 9 (4.97)
GFTFDDYAMH	GISWNSVSIGYADSVK	VGRGGGYFDY	2.88 / 3.30 / 3.01	6 of 9 (4.54)
GFTFDDYAMH	GISRNSGSIGYADSLK	VGRGGGHFDY	n.d. / n.d. / n.d.	6 of 9 (4.15)
GFTFDAYAMH	GISANSGSIGYADSEK	VGRGGGYFDY	3.17 / n.d. / n.d.	0 of 9
GFTFDDYAFH	GISWNSGSHGYADSVK	VGRGGGYYDY	3.13 / n.d. / n.d.	0 of 9
GFTFDDYAMH	GISRNSGSIGYADSVK	VGRQGGYFVY	n.d. / n.d. / 4.75	4 of 9 (4.40)
GFTFDDYAMH	GCSWNSDSIGYADSVK	VGRGGGTFDY	3.20 / n.d. / n.d.	1 of 9 (3.18)
GFTFDDYAMH	GISWNSGSIGYADSVK	VGRGDGYFDY	3.55 / n.d. / n.d.	4 of 9 (3.85)
GFTFDDYAMH	GIYQNSGSIGYVDSVK	VGRGGGYFDY	5.45 / 5.44 / n.d.	1 of 9 (5.37)
GPTFDDGAMH	GISWNSGSIGYADSVK	VGRGGGYFIY	n.d. / n.d. / n.d.	1 of 9 (4.67)
PFTFDDYAMH	GISWRSGSIGYADSVK	VGWGGGYFDY	n.d. / n.d. / n.d.	0 of 9
GFTFDDYAVH	GISWNSGSIGYARSVK	VGRGGGYFSY	n.d. / n.d. / n.d.	0 of 9
GFTWDDYAMH	GISWNSGSIGYADSVK	VGRGGGYFDS	n.d. / 2.55 / n.d.	2 of 9 (3.20)
GFTFDDYAEH	GISVNSGSIGYADSVK	VGRGPGYFDY	n.d. / n.d. / n.d.	0 of 9
GFTFDDYAMH	GISWFSGSIGYADSVK	KGRGVGYFDY	n.d. / n.d. / n.d.	1 of 9 (3.84)
GFTFDDYAMH	GLSWGSGSIGYDDSVK	VGRGGGYFDY	n.d. / n.d. / n.d.	1 of 9 (4.14)
GFTFDDYALH	GISWNDGSIGYADSVK	VGAGGGYFDY	5.23 / n.d. / n.d.	1 of 9 (3.65)
GFFFDDYAMH	GISWNSGSIGYADSIK	VGRGGGYFVY	3.05 / 2.89 / 2.18	3 of 9 (4.07)
GFTFDDYAMN	WISWNSGSIGYADSVK	VGRGGGYFWY	4.85 / 5.63 / 4.84	5 of 9 (4.65)
GFTFDDYAMH	GISWNSGSIGYADSFK	VGGGGGYFHY	n.d. / n.d. / n.d.	1 of 9 (3.72)
GFTFDDYAMH	GISVNSGSIQYADSVK	VGRGGGYFDY	n.d. / n.d. / 2.72	1 of 9 (4.16)
GFTFDGHAMH	GISWNSGSIGYADFVK	VGRGGGYFDY	n.d. / 4.49 / n.d.	0 of 9
GFTFPDYAMH	GISFNSGSIGYADSHK	VGRGGGYFDY	3.53 / 3.49 / 3.50	7 of 9 (4.69)
GFTFDDYAMH	GISHNSGSWGYADSVK	VGRGHGYFDY	n.d. / n.d. / n.d.	3 of 9 (4.56)
GFTFDDYAMH	GISWNSKSIGYADSTK	VGRWGGYFDY	4.93 / n.d. / n.d.	2 of 9 (4.58)
GITFDDYAMH	GISWNSGSIGYAKSVK	VGRGGYYFDY	5.87 / 6.97 / 5.48	6 of 9 (4.84)
GFTFDDHAMH	GISWNSGSSGYADSVK	VGRGGGYFDY	1.34 / 1.21 / 0.69	1 of 9 (4.40)
WFTFDDYAMH	GKSWNSGSIGYADSVK	VGRGCGYFDY	n.d. / n.d. / n.d.	1 of 9 (4.23)
GFTFDDYAMH	GIRWNSGSIGYADSVK	VGRGWGYADY	4.77 / n.d. / 5.22	6 of 9 (5.02)
GGPFDDYAEH	GISWNSGSIGYADSVK	VGRGGGYFDY	n.d. / n.d. / n.d.	1 of 9 (3.24)
GFTFDDYTMH	GESWNSGSIGYADSVK	VGRGGGYFDY	2.96 / 2.46 / n.d.	2 of 9 (2.91)
GFTFDDYAMH	GISTNSGSIGYADSVK	VVRGGGYFDR	4.38 / 4.84 / 5.14	3 of 9 (4.57)
GFTFDDYAMH	GISWNWGSIGYDCSVK	VGRGGGYFDY	4.95 / 6.48 / n.d.	4 of 9 (4.42)
GFTFYDYAMH	GISWNSDSIGYADSTK	VGRGGGYFDY	2.30 / 2.40 / n.d.	0 of 9
GFTFDDYAMH	GIFWNSGSIGYADSVE	VGRGGRYFDY	n.d. / n.d. / n.d.	4 of 9 (4.99)
GFFFDDYAMH	GISWNSGSMGYEDSVK	VGRGGGYFDY	2.63 / 2.83 / 2.32	0 of 9

The first 5 entries again:

CDR-H1,CDR-H2,CDR-H3,"replicates, log10 nM",empty controls
GFTFDDYAMH,EISWNSGSIGYADSVK,VGRGGGYFDY,5.39 / 4.97 / n.d.,2 of 9 (4.96)
GFKFDDYAMH,GWSWNSGSIGYADSVK,VGRGGGLFDY,n.d. / n.d. / n.d.,0 of 9
GFTFDDYAMH,GISWNTGSIGYADRVK,VGRGGGYFDK,3.03 / 2.99 / 4.40,0 of 9
GFTFDDYAMH,GISWNSGSIRYADSVK,VGRGGGKFDA,4.53 / 4.77 / 5.12,5 of 9 (4.91)
GFHFDDYAMQ,GISWNSGSIGYADSIK,VGRGGGYFDY,5.90 / 6.04 / n.d.,5 of 9 (4.30)

For reference, the parent read 1.86 as the reference entry and 0.88 as a member of this library.